Data taken from patent US4416899A, “Antibiotic BMG162-aF2, a process for production thereof, and antitumor drug containing said new antibiotic as active ingredient” (priority 1980, dated 1983).

Test system: mouse leukemia L1210
Experiment: Effect on mouse leukemia L1210 (ip-ip system)
Conditions: hydrochloride

**Q.** Which “effect on mouse leukemia L1210” value does the source give for `N=C(N)NCCCCC(O)CC(=O)NC(O)C(=O)NCCCCNCCCN` (stereo not shown) [BMG162-aF2] here?
**A.** a curative effect and an effect of elongation of survival period
